Values quoted from earlier work in patent US20020165208A1, “Compositions and methods relating to hypertension” (priority 2000, published 2002).

Tested on: SHR rats
Details: castrated male SHR rats, TST replacement; cited from earlier work

For `C[C@]12CC[C@H]3[C@@H](CCC4=CC(=O)CC[C@@]43C)[C@@H]1CC[C@@H]2O` [TST, testosterone], the “Effect on normotensive effects of castration” value is given as “reversed by TST replacement”.
